Assays:
human µ-opioid receptor = human µ-opioid receptor (Homo sapiens, UniProt P35372); test: Binding assay to human µ-opioid receptor ([3H]-DAMGO displacement); settings: read-out: Binding µ; transfected CHO-K1 cell membranes, [3H]-DAMGO 1 nM, 27 °C, 60 min
[1] = target: human α2δ-1 subunit of Cav2.2 calcium channel (Homo sapiens, UniProt P54289); test: Binding assay to human α2δ-1 subunit of Cav2.2 calcium channel ([3H]-Gabapentin displacement); settings: read-out: Binding α2δ-1; human α2δ-1 enriched membranes, 15 nM [3H]-Gabapentin, 27 °C, 60 min

Protein sequences, listed by entry. Tags and fused reporters are not part of them. Lines headed by an entry give the natural chain unless they say otherwise; changes in a name come on top.
UniProt P35372: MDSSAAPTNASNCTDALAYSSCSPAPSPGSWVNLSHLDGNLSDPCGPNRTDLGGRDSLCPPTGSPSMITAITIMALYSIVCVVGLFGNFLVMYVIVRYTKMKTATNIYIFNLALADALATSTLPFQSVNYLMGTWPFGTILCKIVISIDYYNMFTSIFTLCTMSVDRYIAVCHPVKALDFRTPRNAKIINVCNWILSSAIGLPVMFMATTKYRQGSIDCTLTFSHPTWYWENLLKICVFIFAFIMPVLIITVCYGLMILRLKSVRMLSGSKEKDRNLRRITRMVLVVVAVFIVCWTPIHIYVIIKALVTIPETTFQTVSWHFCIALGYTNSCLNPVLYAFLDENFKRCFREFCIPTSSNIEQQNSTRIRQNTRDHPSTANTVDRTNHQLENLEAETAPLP
UniProt P54289: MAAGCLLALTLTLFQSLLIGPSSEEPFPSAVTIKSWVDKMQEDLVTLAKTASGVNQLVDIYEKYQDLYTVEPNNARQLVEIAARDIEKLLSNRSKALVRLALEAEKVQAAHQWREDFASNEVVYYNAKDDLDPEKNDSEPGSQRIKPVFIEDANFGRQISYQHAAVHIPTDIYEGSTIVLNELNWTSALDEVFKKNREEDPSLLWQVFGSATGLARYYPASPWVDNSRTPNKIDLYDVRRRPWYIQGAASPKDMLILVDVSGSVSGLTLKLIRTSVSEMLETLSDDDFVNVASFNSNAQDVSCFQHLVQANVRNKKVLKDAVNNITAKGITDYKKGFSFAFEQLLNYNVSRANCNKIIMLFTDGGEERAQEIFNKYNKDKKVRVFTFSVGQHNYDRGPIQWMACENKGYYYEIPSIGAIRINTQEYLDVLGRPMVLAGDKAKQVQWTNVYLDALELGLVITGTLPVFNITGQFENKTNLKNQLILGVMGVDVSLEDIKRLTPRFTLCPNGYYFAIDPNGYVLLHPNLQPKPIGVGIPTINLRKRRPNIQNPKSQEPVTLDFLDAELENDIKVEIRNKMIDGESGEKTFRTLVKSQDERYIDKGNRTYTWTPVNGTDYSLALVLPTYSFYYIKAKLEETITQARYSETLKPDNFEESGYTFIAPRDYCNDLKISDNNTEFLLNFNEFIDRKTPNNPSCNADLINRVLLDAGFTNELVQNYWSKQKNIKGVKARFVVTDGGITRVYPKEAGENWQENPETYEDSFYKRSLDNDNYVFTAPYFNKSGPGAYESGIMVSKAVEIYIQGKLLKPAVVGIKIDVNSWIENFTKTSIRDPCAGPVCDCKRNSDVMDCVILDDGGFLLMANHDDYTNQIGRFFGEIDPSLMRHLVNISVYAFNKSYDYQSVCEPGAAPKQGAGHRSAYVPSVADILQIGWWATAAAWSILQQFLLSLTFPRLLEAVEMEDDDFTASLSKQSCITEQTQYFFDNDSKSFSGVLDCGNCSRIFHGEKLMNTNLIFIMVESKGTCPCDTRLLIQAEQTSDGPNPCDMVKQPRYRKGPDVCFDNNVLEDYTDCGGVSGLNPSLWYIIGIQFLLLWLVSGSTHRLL

Row | Substance | Ki (human µ-opioid receptor) [nM] | Ki [1] [nM]
1 | (2S,3R)-2-(aminomethyl)-N-((1r,4S)-4-(dimethylamino)-4-phenylcyclohexyl)-N-methyl-3-phenylbutanamide | < 100 | < 500
2 | trans/trans-N-((1r,4S)-4-(dimethylamino)-4-phenylcyclohexyl)-N-methyl-2-(methylamino)-5-phenylcyclopentanecarboxamide | < 100 | > 5000
